PubChem BioAssay AID493087 (The Scripps Research Institute Molecular Screening Center, 2011)
The list shows a part of the results, in another mix than the full data. Active and inactive are the calls of the source.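 How the source made its calls: active means activation above the mean of all tested compounds plus 3 SD, set per screening campaign (cut at about 17% in these data); inactive means the rest.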

Protein sequences, listed by entry. Tags and fused reporters are not part of them.
UniProt P14735, whole entry: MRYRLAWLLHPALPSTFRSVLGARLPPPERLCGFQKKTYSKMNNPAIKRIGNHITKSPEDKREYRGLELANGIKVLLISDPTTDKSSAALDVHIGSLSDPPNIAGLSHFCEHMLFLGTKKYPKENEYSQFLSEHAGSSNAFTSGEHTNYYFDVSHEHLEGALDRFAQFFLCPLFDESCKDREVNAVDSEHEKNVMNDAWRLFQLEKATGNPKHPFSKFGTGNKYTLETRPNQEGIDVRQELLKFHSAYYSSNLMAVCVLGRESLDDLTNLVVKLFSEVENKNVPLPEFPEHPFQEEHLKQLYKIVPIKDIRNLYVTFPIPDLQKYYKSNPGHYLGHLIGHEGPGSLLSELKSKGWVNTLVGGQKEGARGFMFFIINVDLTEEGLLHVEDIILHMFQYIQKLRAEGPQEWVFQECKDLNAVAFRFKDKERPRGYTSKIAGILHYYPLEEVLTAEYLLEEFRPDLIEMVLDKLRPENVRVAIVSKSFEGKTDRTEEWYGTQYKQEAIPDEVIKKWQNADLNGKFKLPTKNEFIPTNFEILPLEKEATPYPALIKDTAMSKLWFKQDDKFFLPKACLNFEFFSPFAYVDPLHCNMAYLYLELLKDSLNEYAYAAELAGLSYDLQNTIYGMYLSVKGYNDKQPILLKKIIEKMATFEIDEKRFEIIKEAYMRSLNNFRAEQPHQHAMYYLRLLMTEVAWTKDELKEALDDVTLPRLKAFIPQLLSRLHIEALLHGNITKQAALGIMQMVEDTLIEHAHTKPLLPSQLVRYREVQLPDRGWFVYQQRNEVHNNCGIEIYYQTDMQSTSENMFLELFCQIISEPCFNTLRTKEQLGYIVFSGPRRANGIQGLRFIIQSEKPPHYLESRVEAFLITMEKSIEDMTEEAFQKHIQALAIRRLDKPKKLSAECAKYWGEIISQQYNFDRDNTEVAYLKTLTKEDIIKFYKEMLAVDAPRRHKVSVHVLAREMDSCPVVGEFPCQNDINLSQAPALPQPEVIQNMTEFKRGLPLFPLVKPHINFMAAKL

biological target: Insulin-degrading enzyme (Homo sapiens) (UniProt P14735); assay: human IDE activators in live cells, primary screen, fluorescence polarization, HEK cells, FAbeta-B substrate (AID 493087); details: FAbeta-B cleavage, at 5.96 µM, stronger effect = higher value, 0% vehicle, 100% cell-free pure enzyme wells

SMILES | activation
CCC(=O)N(c1ccccc1)C1(COC)CCN(CCc2cccs2)CC1 | inactive: 6.04%
CCC(=O)N(c1ccccc1)C1(COC)CCN(CCn2nnn(CC)c2=O)CC1 | inactive: 3.68%
